According to US12234230B2, “Substituted benzyl-triazole compounds for Cbl-b inhibition, and further uses thereof” (Nurix Therapeutics, Inc., priority 2019, dated 2025):

Experiments:
[1] = tested on: primary human total T-cells; assay: Primary human total T-cell activation (IL-2 secretion, CD25 surface staining), Biological Example 9; conditions: anti-CD3 stimulation alone, fold change over baseline, Table 9-1
[2] = tested on: primary human total T-cells; assay: Primary human total T-cell activation (IL-2 secretion, CD25 surface staining), Biological Example 12; conditions: anti-CD3 stimulation alone, fold change over baseline, Table 12-1
[3] = tested on: primary human total T-cells; assay: Primary human total T-cell activation (IL-2 secretion, CD25 surface staining), Biological Example 2; conditions: anti-CD3 stimulation alone, fold change over baseline

`C[C@H]1CCCN(Cc2cc3c(c(C(F)(F)F)c2)CN(c2cccc([C@]4(c5nncn5C)C[C@@H](C)C4)c2)C3=O)C1` [Compound 23, 2-(3-((1s,3R)-3-methyl-1-(4-methyl-4H-1,2,4-triazol-3-yl)cyclobutyl)phenyl)-6-(((S)-3-methylpiperidin-1-yl)methyl)-4-(trifluoromethyl)isoindolin-1-one] was tested, and the “IL-2 secretion CD3 1 μM” value ([1]; 1 μM inhibitor) was “A (A indicates >0.66 fold)”, the “IL-2 secretion CD3 3 μM” value ([1]; 3 μM inhibitor) was “A (A indicates >0.66 fold)” and the “IL-2 secretion CD3 1 μM” value ([2]; 1 μM inhibitor) was “A (A indicates >0.66 fold)”. For the same compound, the “IL-2 secretion CD3 3 μM” value ([2]; 3 μM inhibitor) was “A (A indicates >0.66 fold)”, the “CD25 staining CD3 1 μM” value ([3]; 1 μM inhibitor) was “B (B indicates 1.5-2.5 fold)” and the “IL-2 secretion CD3 1 μM” value ([3]; 1 μM inhibitor) was “B (B indicates 0.70-1.1 fold)”. The “CD25 staining CD3 3 μM” value ([3]; 3 μM inhibitor) was “A (A indicates >2.5 fold)” and the “IL-2 secretion CD3 3 μM” value ([3]; 3 μM inhibitor) was “A (A indicates >1.1 fold)”.
